Biological target: 5-hydroxytryptamine receptor 1A (Homo sapiens, UniProt P08908)
Assay: biochemical
Format: cell-based, HeLa

By UniProt entry, the sequences of proteins in these tests, tags left out.
UniProt P08908, whole entry: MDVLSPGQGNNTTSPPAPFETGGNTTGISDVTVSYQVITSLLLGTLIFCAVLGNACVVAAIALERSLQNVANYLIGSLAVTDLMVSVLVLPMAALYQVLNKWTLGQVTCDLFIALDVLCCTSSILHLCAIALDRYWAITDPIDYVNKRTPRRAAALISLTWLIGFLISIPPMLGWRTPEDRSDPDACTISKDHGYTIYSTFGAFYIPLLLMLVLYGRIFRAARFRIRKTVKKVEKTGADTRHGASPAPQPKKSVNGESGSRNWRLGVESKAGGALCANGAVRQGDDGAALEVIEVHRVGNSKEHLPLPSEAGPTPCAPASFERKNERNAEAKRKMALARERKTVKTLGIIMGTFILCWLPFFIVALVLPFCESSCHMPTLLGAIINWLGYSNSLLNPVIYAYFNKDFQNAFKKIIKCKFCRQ

- Ki: 2 nM
Structure (SMILES): O=C1CCc2ccc(OCCCCN3CCN(c4ccc(F)c5ccccc45)CC3)nc2N1

Source: ChEMBL document CHEMBL1773056 (Bioorg Med Chem Lett, 2011)
